# From patent publication US9487512B2, “(Hetero)aryl cyclopropylamine compounds as LSD1 inhibitors” (ORYZON GENOMICS, S.A., priority 2011, dated 2016)
# Amino acid sequences for entries named in this document (tags omitted).
# UniProt P27338, whole entry: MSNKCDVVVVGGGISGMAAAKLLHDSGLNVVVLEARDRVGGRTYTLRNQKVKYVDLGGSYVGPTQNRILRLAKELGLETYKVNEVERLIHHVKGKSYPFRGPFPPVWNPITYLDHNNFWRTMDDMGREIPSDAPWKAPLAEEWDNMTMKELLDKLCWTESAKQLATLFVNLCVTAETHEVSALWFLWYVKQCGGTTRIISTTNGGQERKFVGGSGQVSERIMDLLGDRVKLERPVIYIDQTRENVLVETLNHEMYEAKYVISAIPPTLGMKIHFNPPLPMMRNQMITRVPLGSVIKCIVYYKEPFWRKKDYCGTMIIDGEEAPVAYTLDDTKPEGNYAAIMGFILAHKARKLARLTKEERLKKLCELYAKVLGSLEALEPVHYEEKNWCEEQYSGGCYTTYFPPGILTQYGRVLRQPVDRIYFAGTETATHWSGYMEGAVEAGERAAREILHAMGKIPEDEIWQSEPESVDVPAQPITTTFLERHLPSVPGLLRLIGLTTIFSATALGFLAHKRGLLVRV
# UniProt P21397, whole entry: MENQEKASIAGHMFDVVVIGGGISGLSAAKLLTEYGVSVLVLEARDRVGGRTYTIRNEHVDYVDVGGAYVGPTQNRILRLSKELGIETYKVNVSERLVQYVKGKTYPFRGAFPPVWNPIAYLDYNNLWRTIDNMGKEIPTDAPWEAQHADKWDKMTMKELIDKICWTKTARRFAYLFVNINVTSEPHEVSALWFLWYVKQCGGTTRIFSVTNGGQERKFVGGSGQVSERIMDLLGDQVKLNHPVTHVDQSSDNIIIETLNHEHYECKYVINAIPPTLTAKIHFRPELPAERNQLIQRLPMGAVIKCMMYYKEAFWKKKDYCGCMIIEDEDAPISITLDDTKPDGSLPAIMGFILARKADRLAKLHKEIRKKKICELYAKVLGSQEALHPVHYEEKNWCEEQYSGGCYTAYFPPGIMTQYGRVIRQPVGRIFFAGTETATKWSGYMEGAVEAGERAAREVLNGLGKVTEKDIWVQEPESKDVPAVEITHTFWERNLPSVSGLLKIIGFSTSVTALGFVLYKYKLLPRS
# Where a name gives a salt, the structure may show the parent alone.
# What was measured:
# [1] = biological target: Human recombinant monoamine oxidase MAO-B (Homo sapiens (Human), UniProt P27338); assay: Monoamine oxidase assay (kynuramine to 4-hydroxyquinoline fluorescence), MAO-B; type: biochemical; conditions: for Ki: Ki value used as designation for the IC50 value, range classes
# [2] = biological target: Human recombinant monoamine oxidase MAO-A (Homo sapiens (Human), UniProt P21397); assay: Monoamine oxidase assay (kynuramine to 4-hydroxyquinoline fluorescence), MAO-A; type: biochemical
SMILES,IC50 [1],Ki [1],IC50 [2]
"Clc1ccc(-c2ccc([C@H]3C[C@@H]3NCCC3CCOCC3)cc2)cc1 (relative stereo) [Example 9, (Trans)-2-(4′-chloro-[1,1′-biphenyl]-4-yl)-N-(2-(tetrahydro-2H-pyran-4-yl)ethyl)cyclopropanamine hydrochloride]",5.6 µM,1 to 10 µM,–
"c1ccc([C@H]2C[C@@H]2NC2CCNCC2)cc1 (racemic) [Example 1, N-((trans)-2-phenylcyclopropyl)piperidin-4-amine hydrochloride]",> 100 µM,> 100 µM,–
"CS(=O)(=O)N1CCC(N[C@H]2C[C@@H]2c2ccccc2)CC1 (relative stereo) [Example 32, 1-(methylsulfonyl)-N-((trans)-2-phenylcyclopropyl)piperidin-4-amine]",> 100 µM,–,–
"Fc1ccccc1C1CC1NC1CCNCC1 (stereo not drawn) [Example 20, N-(2-(2-fluorophenyl)cyclopropyl)piperidin-4-amine]",> 100 µM,–,> 100 µM
"c1ccc([C@H]2C[C@@H]2NC2CCNCC2)cc1 [Example 2, N-((1S,2R)-2-phenylcyclopropyl)piperidin-4-amine hydrochloride]",> 100 µM,> 100 µM,–
"c1ccc([C@H]2C[C@@H]2NC2CCN(c3ccncc3)CC2)cc1 (relative stereo) [Example 40, N-((trans)-2-phenylcyclopropyl)-1-(pyridin-4-yl)piperidin-4-amine]",–,–,> 100 µM
"O=S1(=O)CCC(N[C@H]2C[C@@H]2c2ccc(Br)cc2)CC1 (relative stereo) [Example 41, 4-(((trans)-2-(4-bromophenyl)cyclopropyl)amino)tetrahydro-2H-thiopyran 1,1-dioxide]",–,–,> 50 µM
"c1ccc([C@@H]2C[C@H]2NC2CCNCC2)cc1 [Example 3, N-((1R,2S)-2-phenylcyclopropyl)piperidin-4-amine hydrochloride]",> 100 µM,–,–
"c1ncc([C@H]2C[C@@H]2NC2CCNCC2)s1 (relative stereo) [Example 18, N-((trans)-2-(thiazol-5-yl)cyclopropyl)piperidin-4-amine]",> 100 µM,–,–
"CN1CCC(N[C@H]2C[C@@H]2c2ccccc2)CC1 (relative stereo) [Example 37, 1-methyl-N-((trans)-2-phenylcyclopropyl)piperidin-4-amine]",> 100 µM,–,> 100 µM
"c1ccc(COc2ccc([C@@H]3C[C@H]3NC3CCNCC3)cc2)cc1 (relative stereo) [Example 4, N-((trans)-2-(4-(benzyloxy)phenyl)cyclopropyl)piperidin-4-amine hydrochloride]",3.18 µM,1 to 10 µM,–
"CC(C)N1CCC(N[C@H]2C[C@@H]2c2ccccc2)CC1 (relative stereo) [Example 38, 1-isopropyl-N-((trans)=2-phenylcyclopropyl)piperidin-4-amine]",–,–,> 100 µM
